Drawing on patent US7119182, this text covers shift of the dose response of platelet ATP secretion to native thrombin, S205A and Fold increase in 45Ca (release by oocytes expressing receptor cRNA); Thrombin for two substances.

Experiment [1] concerns the target human thrombin receptor (human) (UniProt P25116). Nature of the experiment: cell-based or functional assay.
Experiment [2] concerns the target mutant thrombin receptor with the amino acid substitution R41A (human) (UniProt P25116). Description: cell-based or functional assay.

As to “S205A mutant thrombin (from UniProt P00734 364-622; P00734 315-363) (enzyme)”, in experiment [1], the shift of the dose response of platelet ATP secretion to native thrombin, S205A at 400 nM was determined as 1 log.

Regarding “thrombin (from UniProt P00734 364-622; P00734 328-363) (enzyme)”, the Fold increase in 45Ca (release by oocytes expressing receptor cRNA); Thrombin in experiment [1] worked out at 26 fold; in experiment [2], 0 fold.
